Measured affinities in a library of Ab-14 heavy chain variants

Binding partner: SARS-CoV-2 spike HR2 peptide, sequence PDVDLGDISGINAS.

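Phage display of a naive human antibody library on the peptide gave the parent. AAYL49 was designed without a model: most single CDR substitutions and a random sample of double and triple ones. AlphaSeq pools MATa yeast showing the antibodies with MATalpha yeast showing the peptide. The frequency of each diploid, read from paired DNA barcodes, reflects how well the two displayed proteins bind. Read counts were normalised to the haploid input and turned into Kd by a linear fit to BCL2-family pairs of known affinity, for each replicate. Mating was done three times.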

Each scFv is VH, three GGGGS repeats, VL, as in the parent Ab-14, and differs from it in the CDRs of the heavy chain only.
VH: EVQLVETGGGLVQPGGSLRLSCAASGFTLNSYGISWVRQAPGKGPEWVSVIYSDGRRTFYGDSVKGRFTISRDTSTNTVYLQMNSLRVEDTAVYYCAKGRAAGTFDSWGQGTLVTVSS
VL: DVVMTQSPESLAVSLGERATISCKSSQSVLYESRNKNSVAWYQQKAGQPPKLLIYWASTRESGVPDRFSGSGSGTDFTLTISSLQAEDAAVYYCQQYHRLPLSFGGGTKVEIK

Changes read parent residue, position, new residue, counted from the first residue of the VH shown.
Values are log10 of the apparent Kd in nM; lower means stronger binding.
Averages over replicates are reported, and they cover detected replicates only.
"not detected" means that the variant was in the library but no mating with the target was seen in any replicate; the authors take this as a sign of poor binding, and no number exists.
As a blank, each scFv also met three strains without target: over library AAYL49, 15% of these pairings were detected, typically at 4.06 and seldom below 2.83.

| changes | mean log10 Kd (nM) | detected |
|---|---|---|
| N30Q/G33D/R57T | 3.48 | 1 of 3 |
| L29I/G33C/T104S | not detected | 0 of 3 |
| N30V/V50H/T104A | 4.65 | 2 of 3 |
| I51V/R57V/D62H | not detected | 0 of 3 |
| I51L/S53Q/S63Y | 4.63 | 1 of 3 |
| R56V/A102C/F105H | 4.78 | 1 of 3 |
| Y32W/G33A/G103R | not detected | 0 of 3 |
| G26A/T28Q/T104L | 5.46 | 2 of 3 |
| S35M/S53P/S63P | not detected | 0 of 3 |
| D54Q/Y60M/S107P | not detected | 0 of 3 |
| R56K/T58A/V64R | 5.27 | 1 of 3 |
| F59R/D62E/D106S | 2.68 | 2 of 3 |
| G26F/A102G/T104D | 1.92 | 3 of 3 |
| L29S/Y32V/Y52E | not detected | 0 of 3 |
| S35N/V50N/K65Q | not detected | 0 of 3 |
| R56E/R57H/S63G | 2.99 | 3 of 3 |
| G26P/L29Y/G55V | 5.10 | 3 of 3 |
| G61K/S63G/G99K | 3.84 | 2 of 3 |
| I51T/S63R/F105V | 3.67 | 2 of 3 |
| D54G/D62K/S63W | not detected | 0 of 3 |
| R57N/S63N/G99H | 4.54 | 3 of 3 |
| L29V/T104C/D106T | 1.16 | 3 of 3 |
| S53G/K65Q/D106T | 2.11 | 3 of 3 |
| G33L/R100A/T104H | 3.41 | 1 of 3 |
| Y52Q/A102L | not detected | 0 of 3 |

The remaining entries, values ahead:

| mean log10 Kd (nM) | detected | changes |
|---|---|---|
| 3.65 | 3 of 3 | N30D/Y52T |
| 4.29 | 1 of 3 | Y32A/S63N/V64D |
| 4.63 | 2 of 3 | V50I/S53W/R56P |
| not detected | 0 of 3 | F27L/T28H/S53R |
| 4.39 | 3 of 3 | D54T/V64S |
| 4.12 | 2 of 3 | F27A/N30G/A102S |
| not detected | 0 of 3 | S31F/K65Q/G103W |
| 4.16 | 3 of 3 | D54L/S63R/V64R |
| not detected | 0 of 3 | T28W/I51A/F59Y |
| 4.52 | 2 of 3 | V50A/S107R |
| not detected | 0 of 3 | S53F/D54R/D106Y |
| 5.09 | 1 of 3 | Y32K/I34D |
| not detected | 0 of 3 | N30W/A102W/G103Y |
| not detected | 0 of 3 | L29F/S35V/S53N |
| not detected | 0 of 3 | F27K/N30A/G55K |
| 4.07 | 2 of 3 | F27V/G99T/G103L |
| 2.98 | 3 of 3 | G61C/S63M/T104D |
| not detected | 0 of 3 | G26S/Y32T/K65N |
| 4.32 | 2 of 3 | S53K/D62M/G99E |
| not detected | 0 of 3 | N30C/D54N/R56N |
| 4.71 | 1 of 3 | G26D/S53E/F59L |
| 4.06 | 1 of 3 | S63V/K65E/T104D |
| not detected | 0 of 3 | F27Y/Y60K/D106Y |
| 4.42 | 2 of 3 | I51D/Y60D/F105G |
| 2.34 | 3 of 3 | F27S/F105E/D106T |

Source: Engelhart et al. 2022 (doi:10.1038/s41597-022-01779-4), MIT Lincoln Laboratory and A-Alpha Bio; data file from the FLAb repository.